Values quoted from earlier work in US8658664B2 (The Board of Regents of the University of Texas System, priority 2008, dated 2014).

System: UV-induced basal cell carcinoma cells
Conditions: oral, Ptch1+/- mice; cited from earlier work

SMILES: CC1=C2C[C@H]3[C@@H](CC=C4C[C@@H](O)CC[C@@]43C)[C@@H]2CC[C@]12O[C@@H]1C[C@H](C)CN[C@H]1[C@H]2C [Cyclopamine]
- block of growth of UV-induced basal cell carcinoma cells: 50%
